{
  "source": "patent US9358096B2",
  "about": "“Methods of treatment with drug eluting stents with prolonged local elution profiles with high local concentrations and low systemic concentrations” (Abbott Laboratories, priority 2007, dated 2016)",
  "experiment": "everolimus arterial tissue concentration in and next to the stented vessel",
  "assay_type": "in vivo",
  "conditions": "swine, 1070 μg, 8.0×28 mm stent; for concentration at 1 day: group 1, 1070 μg Lot #1, 1 day; for concentration at 3 days: group 1, 1070 μg Lot #1, 3 days; for concentration at 7 days: group 1, 1070 μg Lot #1, 7 days; for concentration at 14 days: group 1, 1070 μg Lot #1, 14 days; for concentration at 28 days: group 1, 1070 μg Lot #1, 28 days; for concentration at 56 days: group 1, 1070 μg Lot #1, 56 days; for concentration at 90 days: group 1, 1070 μg Lot #1, 90 days; for concentration at 180 days: group 1, 1070 μg Lot #1, 180 days",
  "key": {"[1]": {"conditions": "read-out: drug concentration in tissue proximal to stented region"}, "[2]": {"conditions": "arterial tissue of stented region, read-out: drug concentration in tissue of stented region"}, "[3]": {"conditions": "arterial tissue, unstented segment distal to stented region, read-out: drug concentration in tissue distal to stented region"}},
  "note": "Like-named read-outs stand apart in the source and are kept apart here.",
  "data": [
    {"molecule": "CO[C@H]1C[C@@H]2CC[C@@H](C)[C@@](O)(O2)C(=O)C(=O)N2CCCC[C@H]2C(=O)O[C@H]([C@H](C)C[C@@H]2CC[C@@H](OCCO)[C@H](OC)C2)CC(=O)[C@H](C)/C=C(\\C)[C@@H](O)[C@@H](OC)C(=O)[C@H](C)C[C@H](C)/C=C/C=C/C=C/1C", "note": "[everolimus, 40-O-(2-hydroxyethyl)-rapamycin]", "values": [
      {"measurement": "concentration at 1 day", "setting": "[1]", "value": 403, "unit": "ng/g"},
      {"measurement": "concentration at 3 days", "setting": "[1]", "value": 199, "unit": "ng/g"},
      {"measurement": "concentration at 7 days", "setting": "[1]", "value": 159, "unit": "ng/g"},
      {"measurement": "concentration at 14 days", "setting": "[1]", "value": 105, "unit": "ng/g"},
      {"measurement": "concentration at 28 days", "setting": "[1]", "value": 66, "unit": "ng/g"},
      {"measurement": "concentration at 56 days", "setting": "[1]", "value": 19, "unit": "ng/g"},
      {"measurement": "concentration at 90 days", "setting": "[1]", "value": 12, "unit": "ng/g"},
      {"measurement": "concentration at 180 days", "setting": "[1]", "value": 4, "unit": "ng/g"},
      {"measurement": "concentration at 1 day", "setting": "[2]", "value": 9960, "unit": "ng/g"},
      {"measurement": "concentration at 3 days", "setting": "[2]", "value": 12900, "unit": "ng/g"},
      {"measurement": "concentration at 7 days", "setting": "[2]", "value": 10900, "unit": "ng/g"},
      {"measurement": "concentration at 14 days", "setting": "[2]", "value": 6420, "unit": "ng/g"},
      {"measurement": "concentration at 28 days", "setting": "[2]", "value": 5830, "unit": "ng/g"},
      {"measurement": "concentration at 56 days", "setting": "[2]", "value": 833, "unit": "ng/g"},
      {"measurement": "concentration at 90 days", "setting": "[2]", "value": 833, "unit": "ng/g"},
      {"measurement": "concentration at 180 days", "setting": "[2]", "value": 209, "unit": "ng/g"},
      {"measurement": "concentration at 1 day", "setting": "[3]", "value": 874, "unit": "ng/g"},
      {"measurement": "concentration at 3 days", "setting": "[3]", "value": 870, "unit": "ng/g"},
      {"measurement": "concentration at 7 days", "setting": "[3]", "value": 739, "unit": "ng/g"},
      {"measurement": "concentration at 14 days", "setting": "[3]", "value": 296, "unit": "ng/g"},
      {"measurement": "concentration at 56 days", "setting": "[3]", "value": 9, "unit": "ng/g"},
      {"measurement": "concentration at 90 days", "setting": "[3]", "value": 9, "unit": "ng/g"},
      {"measurement": "concentration at 180 days", "setting": "[3]", "value": 6, "unit": "ng/g"}
    ]}
  ]
}
